In the test the target is Beta-secretase 1 (Homo sapiens, UniProt P56817). Briefly: The substrate was dissolved at 1 mg/mL in DMSO.The assay was performed in the presence of 5 ul OptiMEM (supernatant collected over 24 hours and cleared from cellular debris by centrifugation) containing the ectodomain of BACE, 25 ul water containing the desired concentration of test compound and 1% DMSO, substrate peptide, 20 mM NaOAc, pH 4.4 and 0.04% Triton-X100 in a total assay volume of 50 ul in a 384 well plate. In general, 25 ul of compound dilution were given to the plate followed by the addition of 10 ul of BACE.

Structures are written as SMILES.

On to `COCCN1C(=O)C2(N=C1N)c1cc(-c3cccc(C#N)c3)ccc1CC21CCC(OC)CC1` (configuration not stated), for which the IC50 is 7.4 nM.
Regarding `COc1cccc(Oc2ccc3c(c2)C2(N=C(N)N(C)C2=O)C2(CCC(OC)CC2)C3)c1` (configuration not stated), the IC50 was determined as 42.8 nM.

The IC50 is the concentration that gives 50% inhibition.

Source of the values: ChEMBL document CHEMBL3886403, “Inhibitors of beta-secretase” (2015).
